What was measured:
[1] = target: Muscarinic acetylcholine receptor M1 (Homo sapiens, UniProt P11229); test: biochemical; format: cell-based, CHO
[2] = target: Muscarinic acetylcholine receptor M3 (Homo sapiens, UniProt P20309); test: biochemical; format: cell-based, CHO
[3] = target: Muscarinic acetylcholine receptor M2 (Homo sapiens, UniProt P08172); test: Displacement of [3H]N-methylscopolamine from human muscarinic M2 receptor expressed in CHO cells after 120 mins by scintillation counting; format: cell-based
[4] = target: Muscarinic acetylcholine receptor M5 (Homo sapiens, UniProt P08912); test: Displacement of [3H]N-methylscopolamine from human muscarinic M5 receptor expressed in CHO cells after 120 mins by scintillation counting; format: cell-based
[5] = Antagonist activity at muscarinic M3 receptor in guinea pig ileum assessed as dissociation constant after 45 mins; format: functional, Cavia porcellus
How it was run: (§1)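 Isolated guinea pig tissues: left atrium (M2), ileum (M3) and lung strips (putative M4). Antagonist dissociation constants were calculated by the Furchgott method and reported as pKB, as mean ± SEM of four to six independent experiments. Agonist reference for the tissue responses was bethanechol.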

Protein sequences, listed by entry. Tags and fused reporters are not part of them. Lines headed by an entry give the natural chain unless they say otherwise; changes in a name come on top.
UniProt P11229: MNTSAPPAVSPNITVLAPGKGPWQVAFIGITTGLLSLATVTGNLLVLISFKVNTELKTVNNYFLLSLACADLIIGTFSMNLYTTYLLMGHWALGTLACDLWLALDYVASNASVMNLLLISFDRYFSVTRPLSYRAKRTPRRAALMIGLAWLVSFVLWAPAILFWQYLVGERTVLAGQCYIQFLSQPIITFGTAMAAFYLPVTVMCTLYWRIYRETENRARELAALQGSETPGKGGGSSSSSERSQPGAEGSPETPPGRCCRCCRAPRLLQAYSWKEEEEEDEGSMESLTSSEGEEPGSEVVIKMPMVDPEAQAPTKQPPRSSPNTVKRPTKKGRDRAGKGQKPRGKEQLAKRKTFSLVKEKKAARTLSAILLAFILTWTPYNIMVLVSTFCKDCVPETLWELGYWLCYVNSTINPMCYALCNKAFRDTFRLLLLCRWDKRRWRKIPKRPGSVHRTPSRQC
UniProt P20309, whole entry: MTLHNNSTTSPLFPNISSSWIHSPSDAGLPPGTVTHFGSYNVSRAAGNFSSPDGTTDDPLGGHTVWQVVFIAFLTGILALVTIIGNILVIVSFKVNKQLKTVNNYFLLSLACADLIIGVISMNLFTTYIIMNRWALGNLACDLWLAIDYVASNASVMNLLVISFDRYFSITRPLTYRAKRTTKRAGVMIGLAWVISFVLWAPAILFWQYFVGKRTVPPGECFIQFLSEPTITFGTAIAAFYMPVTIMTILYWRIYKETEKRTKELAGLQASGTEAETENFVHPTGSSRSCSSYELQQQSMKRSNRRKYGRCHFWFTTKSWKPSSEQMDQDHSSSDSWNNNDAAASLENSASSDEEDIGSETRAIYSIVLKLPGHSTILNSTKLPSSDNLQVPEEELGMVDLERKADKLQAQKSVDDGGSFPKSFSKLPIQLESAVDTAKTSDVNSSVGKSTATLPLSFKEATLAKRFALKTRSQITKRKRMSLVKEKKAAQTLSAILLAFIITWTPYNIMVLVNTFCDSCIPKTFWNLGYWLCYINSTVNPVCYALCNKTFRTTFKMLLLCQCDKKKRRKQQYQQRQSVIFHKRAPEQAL
UniProt P08172, whole entry: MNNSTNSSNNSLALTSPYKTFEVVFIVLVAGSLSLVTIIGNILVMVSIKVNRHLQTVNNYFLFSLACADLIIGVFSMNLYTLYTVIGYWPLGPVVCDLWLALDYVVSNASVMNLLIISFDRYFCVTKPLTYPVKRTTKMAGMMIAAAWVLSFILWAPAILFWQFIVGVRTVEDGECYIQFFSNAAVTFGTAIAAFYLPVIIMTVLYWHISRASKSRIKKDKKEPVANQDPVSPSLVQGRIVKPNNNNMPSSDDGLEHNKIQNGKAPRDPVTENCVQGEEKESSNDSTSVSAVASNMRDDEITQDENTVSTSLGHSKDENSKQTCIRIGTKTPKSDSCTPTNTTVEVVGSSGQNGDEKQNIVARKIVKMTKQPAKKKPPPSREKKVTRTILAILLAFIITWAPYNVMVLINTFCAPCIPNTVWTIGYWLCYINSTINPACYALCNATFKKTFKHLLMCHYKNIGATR
UniProt P08912, whole entry: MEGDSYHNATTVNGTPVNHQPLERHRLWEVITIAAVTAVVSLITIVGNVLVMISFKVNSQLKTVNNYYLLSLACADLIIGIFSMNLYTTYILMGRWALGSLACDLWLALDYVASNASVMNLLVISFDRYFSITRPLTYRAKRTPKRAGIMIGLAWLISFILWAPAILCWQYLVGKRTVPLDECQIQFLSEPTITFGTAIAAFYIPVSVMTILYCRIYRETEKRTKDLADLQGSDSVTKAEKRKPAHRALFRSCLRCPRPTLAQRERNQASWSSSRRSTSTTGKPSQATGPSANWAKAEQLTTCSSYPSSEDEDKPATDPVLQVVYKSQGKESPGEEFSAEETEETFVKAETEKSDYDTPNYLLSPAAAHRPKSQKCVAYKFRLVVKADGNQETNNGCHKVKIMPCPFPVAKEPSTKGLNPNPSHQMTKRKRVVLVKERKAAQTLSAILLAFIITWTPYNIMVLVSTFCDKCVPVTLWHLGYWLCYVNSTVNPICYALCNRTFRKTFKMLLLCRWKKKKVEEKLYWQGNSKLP
UniProt P08173, whole entry: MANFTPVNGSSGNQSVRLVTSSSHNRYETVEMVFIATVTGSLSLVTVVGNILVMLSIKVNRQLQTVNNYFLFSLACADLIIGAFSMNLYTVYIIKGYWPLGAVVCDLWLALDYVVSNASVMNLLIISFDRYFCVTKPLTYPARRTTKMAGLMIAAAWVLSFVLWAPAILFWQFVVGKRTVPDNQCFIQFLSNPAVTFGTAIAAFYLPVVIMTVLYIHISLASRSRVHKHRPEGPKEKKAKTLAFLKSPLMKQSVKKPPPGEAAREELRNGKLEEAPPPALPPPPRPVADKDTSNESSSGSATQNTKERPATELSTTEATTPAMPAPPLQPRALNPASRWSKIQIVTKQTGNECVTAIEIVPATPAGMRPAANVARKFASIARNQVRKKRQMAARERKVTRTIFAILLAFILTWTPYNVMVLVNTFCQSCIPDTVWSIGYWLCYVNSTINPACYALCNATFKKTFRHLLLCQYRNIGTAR

[6] = target: Muscarinic acetylcholine receptor M4 (Homo sapiens, UniProt P08173); test: Displacement of [3H]N-methylscopolamine from human muscarinic M4 receptor expressed in CHO cells after 120 mins by scintillation counting; format: cell-based
[7] = Antagonist activity at muscarinic M4 receptor in guinea pig lung strips assessed as dissociation constant after 45 mins; format: functional, Cavia porcellus
How it was run: as §1

SMILES | Ki [1] | Ki [2] | Ki [3] | Ki [4] | pKb [5] | Ki [6] | pKb [7]
CC[C@@H]1COC[C@@H](C[N+](C)(C)C)O1.[I-] (relative stereo) | > 100000 nM | 81300 nM | – | – | – | – | –
C[N+](C)(C)C[C@@H]1COC[C@H](c2ccccc2)O1.[I-] (relative stereo) | 6760 nM | 9770 nM | 6460 nM | 10200 nM | 5.2 | – | –
C[N+](C)(C)C[C@@H]1COC[C@@H](c2ccccc2)O1.[I-] (relative stereo) | 26300 nM | 31600 nM | 39800 nM | 33100 nM | – | – | –
CN(C)C[C@H]1COCC(c2ccccc2)(c2ccccc2)O1.O=C(O)C(=O)O | 1.26 nM | 1.51 nM | – | – | 8.34 | 2.34 nM | –
CN(C)CC1COCC(c2ccccc2)(c2ccccc2)O1.O=C(O)C(=O)O (racemic) | 4.57 nM | 2.19 nM | – | – | – | 4.9 nM | –
C[N+](C)(C)C[C@@H]1COC[C@H](C(c2ccccc2)c2ccccc2)O1 (relative stereo) | 3800 nM | 8910 nM | – | – | – | – | –
C[N+](C)(C)C[C@H]1COCC(c2ccccc2)(c2ccccc2)O1.[I-] | 0.501 nM | 1.48 nM | – | – | – | 1.48 nM | –
CN(C)C[C@@H]1COCC(c2ccccc2)(c2ccccc2)O1.O=C(O)C(=O)O | 35.5 nM | 72.4 nM | – | – | 7.45 | 70.8 nM | 7.24
C[N+](C)(C)CC1COCC(c2ccccc2)(c2ccccc2)O1.[I-] (racemic) | 0.794 nM | 3.63 nM | – | – | – | 2.63 nM | –
CC[C@H]1COC[C@@H](C[N+](C)(C)C)O1.[I-] (relative stereo) | 15500 nM | 17800 nM | – | – | – | – | –
C[N+](C)(C)C[C@@H]1COC[C@@H](C(c2ccccc2)c2ccccc2)O1 (relative stereo) | 15800 nM | 21400 nM | – | – | – | – | –
C[N+](C)(C)C[C@@H]1COCC(c2ccccc2)(c2ccccc2)O1.[I-] | 16.2 nM | 61.7 nM | – | – | 7.22 | 151 nM | –
